Where “and” joins values, the source holds several entries; their conditions need not be identical. Identical values can stand only once. Only a part is listed here, and it is no random draw. Records with an inconclusive call do not appear. Calls of active or inactive are those of the source. The call rests on the fitted dose curve.
Test: p53 small molecule agonists, cell-based qHTS assay with human liver microsomes: qHTS cell viability counter screen (AID 1963579); further: nearly all actives have a fitted effect of over 45% in size
Settings: p53RE-bla HCT-116 viability, ATP luminescence, 16 h, HLM; at 30.3 µM (top of the series)
Source text: National Center for Advancing Translational Sciences [NCATS]
Division of Preclinical Innovation [DPI]
U.S. Environmental Protection Agency [EPA]
National Institutes of Environmental Health Sciences [NIEHS]
National Toxicology Program [NTP]
U.S. Food and Drug Administration [FDA]
p53, a tumor suppressor protein, is activated following cellular insult, including DNA damage and other cellular stresses. The activation of p53 regulates cell fate by inducing DNA repair, cell cycle arrest, apoptosis, or cellular senescence. The activation of p53, therefore, is a good indicator of DNA damage and other cellular stresses. […] The activation of the reporter gene under culture conditions can be detected by fluorescence intensity. This cell line was used to screen the Tox21 10K compound library in the condition of presence of human liver microsomes and to identify agonists that activate the p53 signaling pathway after in vitro metabolic activation (Ooka et al., Archive of Toxicology 96:1975-1987, 2022).
Tox21 Assay Protocol Summary:
The p53RE-bla cells were dispensed at 4,000cells/3ul/well in 1536-well black-clear bottom plates. After the assay plates were incubated at 37 C, 5% CO2 incubator for 5 hours, 23 nL of compounds dissolved in DMSO, positive controls or DMSO only was transferred to the assay plate. Following compound addition, 3 uL of human liver microsomes (XenoTech, Kansas City, KS) at final concentration of 0.5 mg/mL and 1uL of B-Nicotinamide adenine dinucleotide 2'-phosphate (NADPH) at final concentration of 0.5 mg/mL were transferred to the assay plate. The plates were incubated at 37 C for 16 hours. 1 uL of LiveBLAzer detection mixture was added to each well and the plates were incubated at room temperature in the dark for 2 h. Fluorescence intensity at 460 and 530 nm emission and 405 nm excitation were measured by an Envision plate reader. For cell viability readout that measures cytotoxicity, 4 ul/well of CellTiter-Glo reagent was added into the assay plates using a Flying Reagent Dispenser. After 30 min incubation at room temperature, the luminescence intensity in the plates was measured using a ViewLux plate reader.
On the % scale 0 is the no-effect control and ±100 the full control effect.

| Compound | activity change, negative = cytotoxicity |
| --- | --- |
| OCCSCCO | inactive: 3.51% |

Same assay, conditions: p53RE-bla HCT-116 viability, ATP luminescence, 16 h, HLM; at 66 µM (top of the series)

| Compound | activity change, negative = cytotoxicity |
| --- | --- |
| OCCSCCO | inactive: -4.91% |

Same assay, conditions: p53RE-bla HCT-116 viability, ATP luminescence, 16 h, HLM; at 66 µM (top of the series) unless noted

| Compound | activity change, negative = cytotoxicity |
| --- | --- |
| [NH4+].[O-][Cl+3]([O-])([O-])[O-] | inactive: 0.843% and inactive: 17.9% |
| Cc1ccc([N+](=O)[O-])cc1[N+](=O)[O-] | inactive: 0.0779% and inactive: 0.0445% |
| CCOP(=O)(CC)OCC | inactive: 4.19% |
| Cc1ccc([N+](=O)[O-])c([N+](=O)[O-])c1 | inactive: -21.4% and inactive: 0.789% |
| CCOP(=O)(CC)Oc1ccc([N+](=O)[O-])cc1 (stereo unspecified) | inactive: 0.86% [at 30.3 µM] |
| COP(C)(=O)OC | inactive: -2.25% and inactive: -17.9% |
| CC(C)OP(C)(=O)OC(C)C | inactive: -0.249% and inactive: 3.35% |
| CN(C)CCCl | inactive: -1.1% |
| COc1ccc([N+](=O)[O-])cc1[N+](=O)[O-] | inactive: -0.71% |
| Nc1cc([N+](=O)[O-])cc([N+](=O)[O-])c1O | inactive: -18% |
| O=[N+]([O-])OCC(CO[N+](=O)[O-])(CO[N+](=O)[O-])CO[N+](=O)[O-] | inactive: -0.109% |
| Cc1c([N+](=O)[O-])cccc1[N+](=O)[O-] | inactive: 2.26% and inactive: 9.15% |
| CCN(CC)CCCl | inactive: 2.91% |
| N=C(N)N[N+](=O)[O-] | inactive: 13.2% |
| CP(=O)(O)OCCC[Si](O)(O)O | inactive: 5.58% |
| CC(C)N(CCO)C(C)C | inactive: -1.18% |
| N#CBr | inactive: 0.497% |
| O=[N+]([O-])[O-].[NH4+] | inactive: 9.8% and inactive: -16.9% |
| C/C1=C2N=C(/C=C3N=C(/C(C)=C4\[N-][C@@](C)([C@@H]5N=C1[C@](C)(CCC(=O)NC[C@@H](C)OP(=O)([O-])O[C@H]1[C@@H](O)[C@@H](n6cnc7cc(C)c(C)cc76)O[C@@H]1CO)[C@H]5CC(N)=O)[C@@](C)(CC(N)=O)[C@@H]4CCC(N)=O)[C@@](C)(CC(N)=O)[C@@H]\3CCC(N)=O)C(C)(C)[C@@H]/2CCC(N)=O.[C-]#N.[Co+3] | inactive: -21.5% [at 30.3 µM] |
